# Source: PubChem BioAssay
# Hits are enriched below; roughly 0.59% of the tested compounds scored in any of these assays.
# Rango-impB inh: Rango-importin beta binding inhibition; AID 540263; 0.031% of 340,000 active; Rango CFP/YFP FRET sensor + importin beta, 45 min; Q14974; Potency, µM (titrated, usually from 92.2 µM), for the others: at the top dose inhibition of complex formation;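 note: potency is the fitted concentration of half-maximal effect; 0% = DMSO wells and 100% = buffer wells lacking importin beta; nearly all actives have a fitted effect of over 15% in size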
#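 FRET biosensor Rango (snurportin 1 IBB between N-terminal EYFP and C-terminal Cerulean), 50 nM in PBS/1 mM DTT/0.02% Tween-20/0.1% BSA, preincubated 5 min RT with compound; 0.125 microM importin beta added, 45 min RT, CFP/YFP FRET ratio read.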
# Rango release inh: inhibition of RanGTP-driven Rango-importin beta dissociation. Potency, µM (top dose mostly 46.1 µM), for inactives: top-dose activity change, negative = inhibition. 0.071% of 340,000 active. Biochemical FRET Rango-importin beta, RanGTP-induced dissociation. AID 540253. O95149+P62826; note: potency is the fitted concentration of half-maximal effect; % of control where 0% means no effect; nearly all actives have a fitted effect of over 45% in size
#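 Recombinant Rango FRET biosensor (EYFP–snurportin 1 IBB–cerulean CFP10) at 0.1 uM premixed with 0.25 uM importin beta in PBS, 1 mM DTT, 0.02% Tween-20, 0.1% BSA. Compound added 5 min; RanGTP-RCC1 (0.6 uM Ran, 2 mM GTP, 0.2 uM RCC1) then triggers release, read at 45 min.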
# Giardia killer: kills Giardia lamblia; Giardia lamblia trophozoite viability; AID 540267; 0.15% of 340,000 active; activity change, % at 7.66 µM, hits read low; in the data active = activity change below about -80%; inconclusive = between about -30% and that limit;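 note: parasites exposed to compound for two days anaerobically before the ATP read; % is set by controls: 0 for no effect and ±100 for the full control effect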
#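 Luminescent ATP signal served as the viability read-out, measured 15-30 min after adding ATP detection reagent to trophozoites that had been incubated with compounds for 48 hrs at 37 deg C anaerobically at 100 cells/well.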
# a7 integrin act: integrin-mediated muscular dystrophy alleviation activation; AID 624291; alpha7betagal myoblasts, beta-gal FDG fluorescence, 48 h; 0.064% of 350,000 active; Potency, µM (doses to about 38.3 µM), for the others: at the highest dose activation, hits mostly activators; active = well fitted activation curve with a large enough effect; inconclusive = small, poorly fitted or top-dose-only effect; inactive = no such curve, though single readings can be large or run the other way;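 note: potency is the fitted concentration of half-maximal effect; 100% = response of the positive control SU9516; nearly all actives have a fitted effect of over 60% in size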
#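 Alpha7betagal+/- myoblasts (passage 13) were plated 16-24 hr, then exposed to compounds (1:260 dilution of DMSO stock) for 48 hours at 37C. After MPER lysis, β-galactosidase reporter activity was read as FDG fluorescence (ex 480/em 540) after 30 minutes.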
# uPA generation: inhibitors of cell surface uPA generation; cell surface uPA generation assay, qHTS; 0.31% of 330,000 active; AID 540303; Potency, µM (titrated, usually from 38.3 µM), for the others: at the highest dose activity change, negative = inhibition, usual class: inhibitors; active = well fitted inhibition curve with a large enough effect; inconclusive = small, poorly fitted or top-dose-only effect; inactive = no such curve, though single readings can be large or run the other way; tested in mouse RAW 264.7 cells; note: potency is the fitted concentration of half-maximal effect; % is set by controls: 0 for no effect and ±100 for the full control effect; nearly all actives have a fitted effect of over 55% in size
# Starred values were filed as active, the others as inactive; i = inactive; ? = inconclusive; . = no result; [ ] = dose if it differs, or a comment. Unless noted, calls come from the whole dose curve.
canonical_smiles | Rango-impB inh | Rango release inh | Giardia killer | a7 integrin act | uPA generation
N#Cc1ccc(S(=O)(=O)N2CCN(c3nc(-c4ccccc4)nc4ccccc34)CC2)cc1 | . | . | -17 | . | .
Cc1ccc(F)c(C2C3C=CCCC3(C)C(=O)N2Cc2ccccc2)c1 (configuration not stated) | . | . | -8 | . | .
Cc1ccc2nsnc2c1NC(=O)c1ccc([N+](=O)[O-])o1 | -3% | 1% | -85* | -62% | -1%
O=C(Nc1cccc(Cl)c1N1CCOCC1)c1ccc([N+](=O)[O-])o1 | -1% | -1% | -86* | -57% | -5%
O=C(Nc1cccc2ccccc12)c1ccc([N+](=O)[O-])o1 | -1% | 2% | -98* | -80% | ?
COc1ccccc1NC(=O)c1ccc(COc2ccccc2OC)o1 | -3% | -1% | -15 | -17% | -3%
COc1ccccc1NC(=O)c1ccc([N+](=O)[O-])o1 | 3% | 34% | -96* | -59% | 10µM*
Cc1ccc(C(=O)Nc2cccc3ccccc23)o1 | 0% | 20% | -2 | 27% | 1%
CCn1c(SCC(=O)Nc2oc(C)c3c(C)n[nH]c(=O)c23)nnc1-c1ccco1 | . | . | . | 0% | .
O=S(=O)(c1ccc(F)cc1)N1CCN(c2nc(-c3cccs3)nc3cc(Cl)ccc23)CC1 | . | . | -4 | . | .
O=C1c2ccccc2C(=O)N1c1cccc(O)c1 | . | . | -30 | . | .
COc1ccc(C2Nc3ccccc3C(=O)N2c2ccccc2F)cc1COc1ccc(NC(C)=O)cc1 (configuration not stated) | . | . | 14 | . | .
O=C(COC(=O)Cn1cnc2ccccc21)Nc1cc(S(=O)(=O)N2CCOCC2)ccc1Cl | 1% | 6% | -7 | 2% | 1%
O=C(COC(=O)Cn1cnc2ccccc21)Nc1cc2c(cc1Cl)C(=O)c1ccccc1C2=O | 0% | -5% | -29 | -10% | 5µM*
O=C(CNC(=O)C1CCCCC1)OCc1ccccc1 | . | . | -13 | . | .
O=C(Nc1ccc(-c2nc3ccccc3o2)cc1)C1CCCO1 (configuration not stated) | 4% | 5% | -28 | 7%[7.66 µM] | .
O=C(Nc1ccc(-c2nc3cccnc3s2)cc1)C1CCCO1 (configuration not stated) | -2% | 1% | ? | 8% | 2.5µM*
CCc1ccc(N(C(=O)c2snc(C(N)=O)c2N)C(C(=O)NC2CCCC2)c2ccco2)cc1 (configuration not stated) | 0% | ? | -14 | 2.5µM* | 2%
Cc1[nH]c2ccccc2c1-c1csc(N)n1 | ? | -6% | 0 | 0% | 3%
CCCC(=O)Nc1nc(C)c(-c2csc(Nc3ccccc3OC)n2)s1 | 1% | 0% | 19 | 2% | -7%

# As entered above.
# Entry of COc1ccccc1NC(=O)c1ccc(COc2ccccc2OC)o1 in Giardia killer: -15
# Entry of COc1ccccc1NC(=O)c1ccc([N+](=O)[O-])o1 in a7 integrin act: -59%
# Entry of Cc1ccc2nsnc2c1NC(=O)c1ccc([N+](=O)[O-])o1 in Rango release inh: 1%
# Entry of O=C(Nc1cccc2ccccc12)c1ccc([N+](=O)[O-])o1 in a7 integrin act: -80%
# Entry of CCCC(=O)Nc1nc(C)c(-c2csc(Nc3ccccc3OC)n2)s1 in Giardia killer: 19
# Entry of O=C(COC(=O)Cn1cnc2ccccc21)Nc1cc(S(=O)(=O)N2CCOCC2)ccc1Cl in Giardia killer: -7

# Returning to the listing with the 2 entries that preceded the break.
canonical_smiles | Rango-impB inh | Rango release inh | Giardia killer | a7 integrin act | uPA generation
Cc1[nH]c2ccccc2c1-c1csc(N)n1 | ? | -6% | 0 | 0% | 3%
CCCC(=O)Nc1nc(C)c(-c2csc(Nc3ccccc3OC)n2)s1 | 1% | 0% | 19 | 2% | -7%
CC(=O)Nc1nc(C)c(-c2csc(Nc3cccc(C(C)=O)c3)n2)s1 | 2% | 1% | 5 | -72% | 11µM*
COc1ccccc1Nc1nc(-c2c(C)[nH]c3ccccc23)cs1 | ? | 12µM* | ? | -5% | 4%
COc1ccccc1Nc1nc(-c2sc(NC(=O)C(C)(C)C)nc2C)cs1 | -1% | 0% | 4 | -11% | 5.6µM*
NC(=O)c1ccc(NC(=O)CNC(c2ccccc2)c2ccccc2)cc1 | -2% | 2% | 4 | -18% | 9%
CCOC(=O)N1CCN(/[N+]([O-])=N/Oc2ccc([N+](=O)[O-])cc2[N+](=O)[O-])CC1 | . | . | -12 | . | .
COc1cccc2c1C(=O)c1c(O)c3c(c(O)c1C2=O)CC(O)(C(=O)CO)CC3OC1CC(N(C)C)C(O)C(C)O1 (configuration not stated) | 58µM* | 20% | -4 | ? | -10%
Cc1ccc(-c2c(C3C4C=CCC(C)C4C(=O)N3Cc3ccccc3)ccc3ccccc23)cc1 (configuration not stated) | . | . | 11 | . | .
CCCN1C(=O)C(=O)c2cc(C)ccc21 | -1% | -9% | 7 | -28% | 3.2µM*
Cc1ccc2c(c1)C(=O)C(=O)N2Cc1ccc(Br)cc1 | 0% | 17% | 11 | 0% | 4.5µM*
O=S(=O)(c1ccc(Cl)cc1)N1CCN(c2nc(Nc3cc(Cl)ccc3O)nc3ccccc23)CC1 | . | . | i | . | .
CC(OCc1ccccc1)C(NC(=O)OC(C)(C)C)C(=O)NC1COC2CC(n3ccc(=O)[nH]c3=O)OC12 (configuration not stated) | . | . | 25 | . | .
Cc1ccc(S(=O)(=O)Nc2c(C)n(C)n(-c3ccccc3)c2=O)cc1C(=O)OC(C)C(=O)c1ccccc1 (configuration not stated) | -1% | 1% | 6 | -8% | 5µM*
CN1CCn2cnc(C(=O)Nc3ccc(CNC(=O)OC(C)(C)C)cc3)c2C1=O | . | . | . | 12% | .
COC(=O)[C@@]1(Cc2ccc(F)cc2)[C@H]2c3cc(C(=O)N(C)C)n(C[C@H](O)CO)c3C[C@H]2CN1C(=O)c1ccccc1 | -5% | -1% | -11 | 3% | 7%
COC(=O)[C@@]1(Cc2ccccc2)[C@@H]2C(=CC(=O)[C@H]2CC(=O)C(=O)N(C)C)CN1C(=O)c1ccccc1 | 8% | 7% | -7 | -8% | 2.8µM*
CCOc1cccc2cc(-c3nnc(NCc4ccc5c(c4)OCO5)s3)c(=O)oc12 | ? | 1.3µM* | 13 | 2% | 3%
O=C(COC(=O)/C=C/c1cccc(C(F)(F)F)c1)NC(=O)NCc1ccco1 | -4% | -2% | 5 | -14% | 3%
O=C(NCc1ccccc1)[C@]1(C(F)(F)F)C[C@H](CCC2CCCCC2)CCCO1 | . | . | -14 | . | .
Cc1ccc(Nc2nc(NCc3ccco3)nc3nccnc23)cc1 | . | . | -4 | . | .
Cc1cccc(N=Nc2c(C)c(C#N)c(O)[nH]c2=O)c1 | -2% | -15% | -97* | 11% | -1%
COc1ccc(C2/C=C\CN(Cc3ccccc3)C(C)C(=O)N2Cc2ccc(F)cc2)cc1 (configuration not stated) | . | . | 14 | . | .
CN(C)S(=O)(=O)c1cccc(NC(=O)c2cccc(S(=O)(=O)N3CCCCC3)c2)c1 | -4% | -2% | -1 | -13% | -5%
COc1ccc(NC(=O)CON=CC(=O)Nc2ccc(C)cc2)c(OC)c1 | -1% | 20% | 13 | -27% | 0%
COC(=O)C(C)Oc1ccc2c(c1)O/C(=C\c1ccco1)C2=O (configuration not stated) | ? | 21µM* | 15 | 11% | -1%
COc1cccc2sc3cc(NCc4ccc5c(c4)OCO5)ccc3c(=O)c12 | ? | 21µM* | 0 | 11% | 10%
O=C1SCCN1N=Cc1ccc([N+](=O)[O-])o1 | -3% | 1% | -85* | -54% | -12%
CC1CN(N=Cc2ccc([N+](=O)[O-])o2)C(=N)O1 (configuration not stated) | -1% | -1% | ? | -34% | -10%
Cc1ncc([N+](=O)[O-])n1CCOC(=O)NC(NCc1ccccc1Cl)C(Cl)(Cl)Cl (configuration not stated) | 3% | 5% | -119* | 0% | -10%
